We go through one molecule from US12692262B2, “Substituted ureas as orexin receptor agonists” (Merck Sharp & Dohme LLC, priority 2020, dated 2026).

By UniProt entry, the sequences of proteins in these tests, tags left out.
UniProt O43614, whole entry: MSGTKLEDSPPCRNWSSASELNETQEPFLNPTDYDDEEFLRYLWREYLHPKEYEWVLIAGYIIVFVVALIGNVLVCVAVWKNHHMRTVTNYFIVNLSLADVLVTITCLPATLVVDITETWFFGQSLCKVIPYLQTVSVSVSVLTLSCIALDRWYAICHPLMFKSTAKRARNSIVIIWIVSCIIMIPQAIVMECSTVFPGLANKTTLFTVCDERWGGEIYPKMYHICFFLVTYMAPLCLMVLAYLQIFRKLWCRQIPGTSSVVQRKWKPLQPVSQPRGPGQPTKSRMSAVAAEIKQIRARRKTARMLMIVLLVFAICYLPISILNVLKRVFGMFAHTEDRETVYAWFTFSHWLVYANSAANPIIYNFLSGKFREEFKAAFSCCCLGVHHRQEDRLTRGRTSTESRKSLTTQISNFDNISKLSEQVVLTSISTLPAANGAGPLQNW

The assay deals with human OX2R (Homo sapiens, UniProt O43614). The experiment in a line: IPOne (IP-1 accumulation) assay in CHO cells expressing human OX2R. The class given is cell-based. The note with it: read-out: OX2R Potency, EC50, IP-One assay, 2 h incubation, four parameter logistic fit.

As to `CC[C@H](CCC(F)(F)F)NC(=O)N(CC)Cc1cc(-c2ccc3nccn3c2)c(OC)cc1OC`, the EC50 was 341 nM.
